Data as given in patent US6515010B1, “Carvedilol methanesulfonate” (SmithKline Beecham Corporation, priority 1999, dated 2003).

Assay: physchem
Conditions: 25 °C, water, thermodynamic from solid

SMILES: COc1ccccc1OCCNCC(O)COc1cccc2[nH]c3ccccc3c12 (stereo not shown) [Carvedilol]
- solubility at 0.5 hr: 5 µg/mL (≈ 12.3 µM)

In brackets after ≈: the same amount, converted by molar mass.
